Biological target: T1, human transferrin receptor (hTfR) (Homo sapiens, UniProt P02786)
T1 construct: made in house
Assay: Evaluation of molecular interaction between transferrin receptor (hTfR) and peptide using surface plasmon resonance (SPR)
Assay type: binding
Conditions: KD class of peptide with linker binding to hTfR, by SPR (TABLE 5); read-out: SPR
Procedure, shortened: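 Recombinant hTfR dimer (0.5 μM) immobilized on Ni-loaded NTA chip via EDC/NHS, ethanolamine-capped. Peptides at 5–100 nM in HEPES pH 8.0 buffer with 150 mM NaCl, 0.05% Tween 20, 0.1% BSA, 1.0% DMSO, flowed by single-cycle kinetics; KD from least-squares fit of sensorgrams.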

Protein sequences, listed by entry. Tags and fused reporters are not part of them. Residues count along the entry.
UniProt P02786, 89-760 limits assumed: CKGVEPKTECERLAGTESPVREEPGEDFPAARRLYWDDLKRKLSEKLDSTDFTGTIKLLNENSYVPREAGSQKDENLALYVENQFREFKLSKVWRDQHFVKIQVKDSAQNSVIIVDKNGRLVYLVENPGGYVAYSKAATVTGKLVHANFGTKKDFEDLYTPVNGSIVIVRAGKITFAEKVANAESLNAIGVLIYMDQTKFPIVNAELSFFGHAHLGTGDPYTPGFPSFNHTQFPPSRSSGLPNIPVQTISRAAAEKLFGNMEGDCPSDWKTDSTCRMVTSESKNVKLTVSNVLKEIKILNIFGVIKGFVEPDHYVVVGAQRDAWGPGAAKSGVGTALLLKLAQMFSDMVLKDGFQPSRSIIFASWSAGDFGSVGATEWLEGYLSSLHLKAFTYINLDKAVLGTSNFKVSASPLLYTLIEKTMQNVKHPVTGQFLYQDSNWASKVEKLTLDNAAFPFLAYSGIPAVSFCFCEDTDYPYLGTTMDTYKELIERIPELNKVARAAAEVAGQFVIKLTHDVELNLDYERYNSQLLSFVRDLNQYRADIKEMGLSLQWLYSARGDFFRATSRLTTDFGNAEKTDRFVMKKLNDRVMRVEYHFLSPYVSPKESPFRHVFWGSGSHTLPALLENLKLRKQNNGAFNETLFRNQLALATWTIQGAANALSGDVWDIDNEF

| Kd | SMILES |
| --- | --- |
| 1 to 100 nM | CC[C@H](C)[C@@H]1NC(=O)[C@H](Cc2ccc(OCC(=O)O)cc2)NC(=O)[C@H](Cc2ccc(N)nc2)NC(=O)[C@H](CC(N)=O)NC(=O)[C@H](Cc2c[nH]c3ccccc23)NC(=O)[C@H](C(C)C)NC(=O)[C@H](Cc2cccc(Cl)c2)N(C)C(=O)[C@H](C(C)C)NC(=O)[C@H](C)NC(=O)CSC[C@@H](C(=O)NCC(=O)N[C@H](CO)C(=O)N[C@H](CO)C(=O)N[C@H](CO)C(=O)N[C@H](CO)C(=O)N[C@H](CO)C(=O)N[C@H](CCCCN)C(N)=O)NC(=O)[C@H](Cc2ccc(O)cc2)N(C)C(=O)[C@H](Cc2cccc(C(=O)O)c2)NC(=O)[C@H](CCCNC(=N)N)NC(=O)[C@H](CCC(=O)NCCOCCOCCOCCOCCOCCOCCOCCOC)NC(=O)[C@H]([C@@H](C)CC)NC1=O [compound 341] |
| 1 to 100 nM | CC[C@H](C)[C@@H]1NC(=O)[C@H](Cc2ccc(OCC(=O)O)cc2)NC(=O)[C@H](Cc2ccc(N)nc2)NC(=O)[C@H](CC(N)=O)NC(=O)[C@H](Cc2c[nH]c3ccccc23)NC(=O)[C@H](C(C)C)NC(=O)[C@H](Cc2cccc(Cl)c2)N(C)C(=O)[C@H](C(C)C)NC(=O)[C@H](C)NC(=O)CSC[C@@H](C(=O)NCC(=O)N[C@@H](CO)C(=O)N[C@@H](CO)C(=O)N[C@@H](CO)C(=O)N[C@@H](CO)C(=O)N[C@@H](CO)C(=O)N[C@H](CCCCN)C(N)=O)NC(=O)[C@H](Cc2ccc(O)cc2)N(C)C(=O)[C@H](Cc2cccc(C(=O)O)c2)NC(=O)[C@H](CCCNC(=N)N)NC(=O)[C@H](CCC(=O)NCCOCCOCCOCCOCCOCCOCCOCCOC)NC(=O)[C@H]([C@@H](C)CC)NC1=O [compound 342] |
| 1 to 100 nM | CC[C@H](C)[C@@H]1NC(=O)[C@H](Cc2ccc(OCC(=O)O)cc2)NC(=O)[C@H](Cc2ccc(N)nc2)NC(=O)[C@H](CC(N)=O)NC(=O)[C@H](Cc2c[nH]c3ccccc23)NC(=O)[C@H](C(C)C)NC(=O)[C@H](Cc2cccc(Cl)c2)N(C)C(=O)[C@H](C(C)C)NC(=O)[C@H](C)NC(=O)CSC[C@@H](C(=O)NCC(=O)N[C@H](CO)C(=O)N[C@H](CO)C(=O)N[C@H](CO)C(=O)N[C@H](CCC(=O)O)C(=O)N[C@H](CCC(=O)O)C(=O)N[C@H](CCCCN)C(N)=O)NC(=O)[C@H](Cc2ccc(O)cc2)N(C)C(=O)[C@H](Cc2cccc(C(=O)O)c2)NC(=O)[C@H](CCCNC(=N)N)NC(=O)[C@H](CCC(=O)NCCOCCOCCOCCOCCOCCOCCOCCOC)NC(=O)[C@H]([C@@H](C)CC)NC1=O [compound 343] |
| 1 to 100 nM | CC[C@H](C)[C@@H]1NC(=O)[C@H](Cc2ccc(OCC(=O)O)cc2)NC(=O)[C@H](Cc2ccc(N)nc2)NC(=O)[C@H](CC(N)=O)NC(=O)[C@H](Cc2c[nH]c3ccccc23)NC(=O)[C@H](C(C)C)NC(=O)[C@H](Cc2cccc(Cl)c2)N(C)C(=O)[C@H](C(C)C)NC(=O)[C@H](C)NC(=O)CSC[C@@H](C(=O)NCC(=O)N[C@H](CO)C(=O)N[C@H](CO)C(=O)N[C@H](CO)C(=O)N[C@H](CO)C(=O)N[C@H](CCC(=O)O)C(=O)N[C@H](CCCCN)C(N)=O)NC(=O)[C@H](Cc2ccc(O)cc2)N(C)C(=O)[C@H](Cc2cccc(C(=O)O)c2)NC(=O)[C@H](CCCNC(=N)N)NC(=O)[C@H](CCC(=O)NCCOCCOCCOCCOCCOCCOCCOCCOC)NC(=O)[C@H]([C@@H](C)CC)NC1=O [compound 344] |
| 100 to 1000 nM | CC[C@H](C)[C@@H]1NC(=O)[C@H](Cc2ccc(OCC(=O)O)cc2)NC(=O)[C@H](Cc2ccc(N)nc2)NC(=O)[C@H](CC(N)=O)NC(=O)[C@H](Cc2c[nH]c3ncccc23)NC(=O)[C@H](C(C)C)NC(=O)[C@H](Cc2cccc(Cl)c2)N(C)C(=O)[C@H](C(C)C)NC(=O)[C@H](C)NC(=O)CSC[C@@H](C(=O)NCC(=O)N[C@H](CCC(=O)O)C(=O)N[C@H](CCC(=O)O)C(=O)N[C@H](CCC(=O)O)C(=O)N[C@H](CO)C(=O)N[C@H](CO)C(=O)N[C@@H](CCCCN=[N+]=[N-])C(N)=O)NC(=O)[C@H](Cc2ccc(O)cc2)N(C)C(=O)[C@H](Cc2cccc(C(=O)O)c2)NC(=O)[C@H](CCCNC(=N)N)NC(=O)[C@H](CCC(=O)NCCOCCOCCOCCOCCOCCOCCOCCOC)NC(=O)[C@H]([C@@H](C)CC)NC1=O [compound 345] |
| 1 to 100 nM | CC[C@H](C)[C@@H]1NC(=O)[C@H](Cc2ccc(OCC(=O)O)cc2)NC(=O)[C@H](Cc2ccc(O)cc2)NC(=O)[C@H](CC(N)=O)NC(=O)[C@H](Cc2cn(CC(=O)O)c3ccccc23)NC(=O)[C@H](C(C)C)NC(=O)[C@H](Cc2cccc(Cl)c2)N(C)C(=O)[C@H](C(C)C)NC(=O)[C@H](C)NC(=O)CSC[C@@H](C(=O)NCC(=O)N[C@H](CCC(=O)O)C(=O)N[C@H](CCC(=O)O)C(=O)N[C@H](CCC(=O)O)C(=O)N[C@H](CO)C(=O)N[C@H](CO)C(=O)N[C@@H](CCCCN=[N+]=[N-])C(N)=O)NC(=O)[C@H](Cc2ccc(O)cc2)N(C)C(=O)[C@H](Cc2ccncc2)NC(=O)[C@H](CCCCN2CCOCC2)NC(=O)[C@H](CCC(N)=O)NC(=O)[C@H]([C@@H](C)CC)NC1=O [compound 346] |
| 1 to 100 nM | CC[C@H](C)[C@@H]1NC(=O)[C@H](Cc2ccc(OCC(=O)O)cc2)NC(=O)[C@H](Cc2ccc(O)cc2)NC(=O)[C@H](CC(N)=O)NC(=O)[C@H](Cc2c[nH]c3ncccc23)NC(=O)[C@H](C(C)C)NC(=O)[C@H](Cc2cccc(Cl)c2)N(C)C(=O)[C@H](C(C)C)NC(=O)[C@H](C)NC(=O)CSC[C@@H](C(=O)NCC(=O)N[C@H](CCC(=O)O)C(=O)N[C@H](CCC(=O)O)C(=O)N[C@H](CCC(=O)O)C(=O)N[C@H](CO)C(=O)N[C@H](CO)C(=O)N[C@@H](CCCCN=[N+]=[N-])C(N)=O)NC(=O)[C@H](Cc2ccc(O)cc2)N(C)C(=O)[C@H](Cc2cccc(C(=O)O)c2)NC(=O)[C@H](CCCNC(=N)N)NC(=O)[C@H](CCC(=O)NCCOCCOCCOCCOCCOCCOCCOCCOC)NC(=O)[C@H]([C@@H](C)CC)NC1=O [compound 347] |
| 1 to 100 nM | CC[C@H](C)[C@@H]1NC(=O)[C@H](Cc2ccc(OCC(=O)O)cc2)NC(=O)[C@H](Cc2ccc(O)cc2)NC(=O)[C@H](CC(N)=O)NC(=O)[C@H](Cc2cn(CC(=O)O)c3ccccc23)NC(=O)[C@H](C(C)C)NC(=O)[C@H](Cc2cccc(Cl)c2)N(C)C(=O)[C@H](C(C)C)NC(=O)[C@H](C)NC(=O)CSC[C@@H](C(=O)NCC(=O)N[C@H](CCC(=O)O)C(=O)N[C@H](CCC(=O)O)C(=O)N[C@H](CCC(=O)O)C(=O)N[C@H](CO)C(=O)N[C@H](CO)C(=O)N[C@@H](CCCCN=[N+]=[N-])C(N)=O)NC(=O)[C@H](Cc2ccc(O)cc2)N(C)C(=O)[C@H](Cc2cccc(C(=O)O)c2)NC(=O)[C@H](CCCCN2CCOCC2)NC(=O)[C@H](CCCCN2CCOCC2)NC(=O)[C@H]([C@@H](C)CC)NC1=O [compound 348] |
| 1 to 100 nM | CC[C@H](C)[C@@H]1NC(=O)[C@H](Cc2ccc(O)cc2)NC(=O)[C@H](Cc2ccc(O)cc2)NC(=O)[C@H](CC(N)=O)NC(=O)[C@H](Cc2c[nH]c3ccccc23)NC(=O)[C@H](C(C)C)NC(=O)[C@H](Cc2ccccc2)N(C)C(=O)[C@H](C(C)C)NC(=O)[C@H](C)NC(=O)CSC[C@@H](C(=O)NCC(=O)N[C@@H](CCCNC(=N)N)C(=O)N[C@@H](CCCNC(=N)N)C(=O)N[C@@H](CCCNC(=N)N)C(=O)N[C@@H](CCCCN=[N+]=[N-])C(N)=O)NC(=O)[C@H](Cc2ccc(O)cc2)N(C)C(=O)[C@H](Cc2ccc(O)cc2)NC(=O)[C@H](CCCNC(=N)N)NC(=O)[C@H](CCCNC(=N)N)NC(=O)[C@H]([C@@H](C)CC)NC1=O [compound 349] |
| 1 to 100 nM | CC[C@H](C)[C@@H]1NC(=O)[C@H](Cc2ccc(O)cc2)NC(=O)[C@H](Cc2ccc(O)cc2)NC(=O)[C@H](CC(N)=O)NC(=O)[C@H](Cc2c[nH]c3ccccc23)NC(=O)[C@H](C(C)C)NC(=O)[C@H](Cc2ccccc2)N(C)C(=O)[C@H](C(C)C)NC(=O)[C@H](C)NC(=O)CSC[C@@H](C(=O)NCC(=O)N[C@H](CCCNC(=N)N)C(=O)N[C@H](CCCNC(=N)N)C(=O)N[C@H](CCCNC(=N)N)C(=O)N[C@@H](CCCCN=[N+]=[N-])C(N)=O)NC(=O)[C@H](Cc2ccc(O)cc2)N(C)C(=O)[C@H](Cc2ccc(O)cc2)NC(=O)[C@H](CCCNC(=N)N)NC(=O)[C@H](CCCNC(=N)N)NC(=O)[C@H]([C@@H](C)CC)NC1=O [compound 350] |
| 1 to 100 nM | CC[C@H](C)[C@@H]1NC(=O)[C@H](Cc2ccc(OCC(=O)O)cc2)NC(=O)[C@H](Cc2ccc(O)cc2)NC(=O)[C@H](CC(N)=O)NC(=O)[C@H](Cc2cn(CC(=O)O)c3ccccc23)NC(=O)[C@H](C(C)C)NC(=O)[C@H](Cc2cccc(Cl)c2)N(C)C(=O)[C@H](C(C)C)NC(=O)[C@H](C)NC(=O)CSC[C@@H](C(=O)NCC(=O)N[C@@H](CCCCN=[N+]=[N-])C(N)=O)NC(=O)[C@H](Cc2ccc(O)cc2)N(C)C(=O)[C@H](Cc2ccncc2)NC(=O)[C@H](CCCCN2CCOCC2)NC(=O)[C@H](CCC(N)=O)NC(=O)[C@H]([C@@H](C)CC)NC1=O [compound 351] |
| 1 to 100 nM | CC[C@H](C)[C@@H]1NC(=O)[C@H](Cc2ccc(O)cc2)NC(=O)[C@H](Cc2ccc(O)cc2)NC(=O)[C@H](CC(N)=O)NC(=O)[C@H](Cc2c[nH]c3ccccc23)N(C)C(=O)[C@H](C(C)C)NC(=O)[C@H](Cc2ccccc2)N(C)C(=O)[C@H](C(C)C)NC(=O)[C@H](C)NC(=O)CSC[C@@H](C(=O)NCC(=O)NCC(=O)NCC(=O)NCC(=O)N[C@@H](CO)C(=O)N[C@@H](CO)C(=O)N[C@@H](CS)C(N)=O)NC(=O)[C@H](Cc2ccc(O)cc2)N(C)C(=O)[C@H](Cc2ccc(O)cc2)NC(=O)[C@H](CCCNC(=N)N)NC(=O)[C@H](CCCCN)NC(=O)[C@H]([C@@H](C)CC)NC1=O [compound 352] |
| 1 to 100 nM | CC[C@H](C)[C@@H]1NC(=O)[C@H](Cc2ccc(OCC(=O)O)cc2)NC(=O)[C@H](Cc2ccc(O)cc2)NC(=O)[C@H](CC(N)=O)NC(=O)[C@H](Cc2cn(CC(=O)O)c3ccccc23)NC(=O)[C@H](C(C)C)NC(=O)[C@H](Cc2cccc(Cl)c2)N(C)C(=O)[C@H](C(C)C)NC(=O)[C@H](C)NC(=O)CSC[C@@H](C(=O)NCC(=O)N[C@H](CO)C(=O)N[C@H](CO)C(=O)N[C@H](CO)C(=O)N[C@H](CO)C(=O)N[C@H](CO)C(=O)N[C@@H](CCCCN=[N+]=[N-])C(N)=O)NC(=O)[C@H](Cc2ccc(O)cc2)N(C)C(=O)[C@H](Cc2ccncc2)NC(=O)[C@H](CCCNC(=N)N)NC(=O)[C@H](CCC(=O)NCCOCCOCCOCCOCCOCCOCCOCCOC)NC(=O)[C@H]([C@@H](C)CC)NC1=O [compound 353] |

— US20260116920A1, “HUMAN TRANSFERRIN RECEPTOR BINDING PEPTIDE” (PEPTIDREAM INC., priority 2021, published 2026)
